One substance from US20260209200A1, “SALTS OF A DIHYDROOROTATE DEHYDROGENASE (DHOD) INHIBITOR” (priority 2022, published 2026) can be followed below.

The nature of the data set: Kinetic solubility of PP-001 salts in FaSSIF (HPLC). It is filed as physicochemical. Conditions: 4 mL FaSSIF, 25° C., target 2 mg/mL. The protocol: Approximately 8 mg (calculated as freebase) of each salt was weighed out into each glass vial and then 4 ml of FaSSIF was added (target concentration was 2 mg/mL). The sample was kept stirring on a magnetic stirrer at a speed of I 00 RPM under 25° C. Then at the time points of initial, 0.5 hr, 1 hr, 2 hrs and 24 hrs, 0.5 mL of sample solution was transferred into 1.5 mL centrifugation tube and centrifuged at 12,000 RPM for 10 min. The supernatant was diluted by 50% ACN suitable and analyzed by HPLC.
An HPLC method of testing solubility was performed as follows in Table A: […]

On to Zinc, for which the “Appearance after stirring for 24 hours” value is on record as “suspension” and the “Final pH” value is listed as 6.49. Further, where the note is “0.5 h”, the “Solubility at different time points, 0.5 h” value amounted to 0.22 mg/mL. Also, the “Solubility at different time points, 1 h” value (1 h) was determined as 0.21 mg/mL. The “Solubility at different time points, 2 h” value (2 h) came out at 0.22 mg/mL. For the same substance, where the note is “listed as Zn”, the “Solubility at different time points, 24 h” value came out at 0.26 mg/mL. Moreover, the “Solubility at different time points, 24 h” value (listed as Zn cation) worked out at 0.26 mg/mL. Under “initial”, the “Solubility at different time points, Initial” value is 0.19 mg/mL.
